GIV Gai3 FP = inhibitors of GIV GBA-motif binding to rat Galpha-i3; P08753; Galpha-i3/FITC-GIV peptide fluorescence polarization, 90 min; stronger effect = lower value; scaled: aluminum fluoride 0%, vehicle 100%; percent of control (FP), % (test concentration not listed); 210,000 tested, 0.42% active; AID 1224905;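 active = replicate mean at 85% of control or lower, very high polarization wells dropped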;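 note: wells of about 15 µL received 100 nL stock; the first replicate is given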
HCMV NEC inh = cytomegalovirus nuclear egress complex inhibition; AID 1918969; 190,000 compounds, 0.15% hits; HTRF UL50-UL53 interaction, normalized percent inhibition; inhibition, % (test concentration not listed); in the data active = inhibition above about 27%, passing the limit was not always enough
A number is an active result; ! = a repeat was not active. Most compounds without a hit are left out; they make up all but 0.43% or so of the library.

For Cc1ccc(S(=O)(=O)Cc2nc(-c3ccc(C(=O)NCC4CCCO4)cc3)oc2C)cc1 (configuration not stated) the results were GIV Gai3 FP inactive and HCMV NEC inh inactive.
Fc1ccc(Nc2nc3ccccc3c3nncn23)cc1F was read as GIV Gai3 FP inactive and HCMV NEC inh inactive.
COC(=O)c1ccc(C2Oc3ccc(Cl)cc3C3CC(c4ccc(C)o4)=NN32)cc1 (configuration not stated) was read as GIV Gai3 FP inactive.
For CCCCCCc1cc2cc(-c3nnc(-c4ccc(C)cc4)o3)c(=O)oc2cc1O the results were GIV Gai3 FP 7.6 and HCMV NEC inh inactive.
For CCCCCCc1cc2cc(-c3csc(Nc4ccc(Cl)cc4Cl)n3)c(=O)oc2cc1O the results were GIV Gai3 FP inactive and HCMV NEC inh inactive.
CCN(CC)c1ccc(C=C2C(=O)c3ccccc3C2=O)c(O)c1 was read as GIV Gai3 FP -64 and HCMV NEC inh inactive.
Screening CCN(CC)c1ccc(/C=N/NC=O)c(O)c1 returned HCMV NEC inh inactive.
NC(=O)c1nc(-c2ccc3c(c2)OCCO3)nc2c1n(Cc1ccccc1)c(=O)n2-c1ccc(F)cc1 was read as GIV Gai3 FP inactive and HCMV NEC inh inactive.
Screening CC(=O)NCCCc1[nH]n(-c2ccccc2)c(=O)c1NC(=O)c1ccccc1 returned HCMV NEC inh 65.
CCCc1[nH]n(-c2ccccc2)c(=O)c1C(C)=NCCOC was read as GIV Gai3 FP inactive and HCMV NEC inh inactive.
COc1cccc(CNc2ccc3c(c2)ncn3C2CCCCC2)c1 was read as GIV Gai3 FP inactive.
Cc1ccc(S(=O)(=O)Nc2nc3n(n2)C(c2ccc(Cl)cc2)C=C(c2ccc(Cl)cc2)N3)cc1 (configuration not stated) was read as GIV Gai3 FP inactive and HCMV NEC inh inactive.
COc1ccc(C(=O)Nc2nc3n(n2)C(c2ccc(F)cc2)C=C(c2ccc(Cl)cc2)N3)cc1 (configuration not stated) was read as GIV Gai3 FP -66 and HCMV NEC inh inactive.
Screening O=C(Nc1nc2n(n1)C(c1ccc(F)cc1)C=C(c1ccccc1)N2)c1ccc(Cl)cc1 (configuration not stated) returned GIV Gai3 FP inactive and HCMV NEC inh inactive.
For Cc1ccc(C2C=C(c3ccc(Cl)cc3)Nc3nc(NC(=O)c4ccco4)nn32)cc1 (configuration not stated) the results were GIV Gai3 FP 33 and HCMV NEC inh inactive.
For Cc1ccc(S(=O)(=O)Nc2nc3n(n2)C(c2ccc(Cl)cc2)C=C(c2ccccc2)N3)cc1 (configuration not stated) the results were GIV Gai3 FP -66! and HCMV NEC inh inactive.
COc1ccccc1C(=O)Nc1nc2n(n1)C(c1ccc(F)cc1)C=C(c1ccc(Cl)cc1)N2 (configuration not stated) was read as GIV Gai3 FP inactive and HCMV NEC inh inactive.
`COc1ccc(C(=O)OCC(=O)N2c3ccccc3CC2C)cc1` (configuration not stated) gave HCMV NEC inh inactive.
CCCCCCn1c(COc2ccccc2F)nnc1SCc1cc(=O)n2ccsc2n1 was read as HCMV NEC inh inactive.
Screening COc1ccc(-c2nc(Nc3ccc(OC)c(Cl)c3)c3ccccc3n2)cc1 returned GIV Gai3 FP inactive and HCMV NEC inh inactive.
`COc1ccc(-c2nc(Nc3ccc4c(c3)OCCO4)c3ccccc3n2)cc1OC` gave GIV Gai3 FP inactive and HCMV NEC inh 34.
`CC(=O)N(C)c1ccc(F)cc1F` gave GIV Gai3 FP inactive and HCMV NEC inh inactive.
`CCc1ccccc1N(C)S(=O)(=O)c1ccccc1-c1nc(-c2ccccc2)no1` gave GIV Gai3 FP inactive.
`CCCN1C(=S)N(CCO)C(=O)/C1=C/C=C1/Oc2ccccc2N1CCC(=O)O` gave GIV Gai3 FP -20 and HCMV NEC inh inactive.
`CCN1/C(=C/C=C2/C(=O)N(C)C(=S)N2C)Oc2ccccc21` gave GIV Gai3 FP inactive and HCMV NEC inh inactive.
`Cc1c(Cl)cccc1N1C(=O)CSC12C(=O)Nc1ccccc12` (configuration not stated) gave GIV Gai3 FP inactive.
Cn1cccc1/C=C1\CCc2ccccc2C1=O was read as GIV Gai3 FP inactive.
`Cn1cccc1/C=C1\CC/C(=C\c2cccn2C)C1=O` gave GIV Gai3 FP -75.
Screening COc1cc(/C=C2\C(=O)NC(=S)N(c3ccc(C(C)(C)C)cc3)C2=O)ccc1OCC(=O)O returned GIV Gai3 FP inactive and HCMV NEC inh inactive.
`Cc1ccc(-c2nc3cnccn3c2Nc2ccccc2C)cc1` gave GIV Gai3 FP inactive and HCMV NEC inh inactive.
`O=C(O)c1ccccc1-c1nnc2c(Cl)cc(C(F)(F)F)cn12` gave GIV Gai3 FP inactive and HCMV NEC inh inactive.
For Fc1ccccc1-c1nnc2ccc(C(F)(F)F)cn12 the results were HCMV NEC inh 57.
O=C(CSc1ccc2c(c1)OCCO2)c1ccc[nH]1 was read as HCMV NEC inh inactive.
`COc1ccc(OC)c(CNC(=O)c2cccc(Oc3cc(-c4ccccc4)ncn3)c2)c1` gave GIV Gai3 FP inactive.
For Cc1ccccc1NC(=O)C(C)Sc1nc2ccccc2c(=O)n1C (configuration not stated) the results were GIV Gai3 FP inactive and HCMV NEC inh inactive.
For CC(Sc1nc2ccccc2c(=O)n1C)C(=O)Nc1ccc2c(c1)OCCO2 (configuration not stated) the results were HCMV NEC inh 34.
For CC(=O)NC1=C(O)CC(C)(C)CC1=O the results were GIV Gai3 FP inactive.
Cc1nc2c3c(cccc3n1)C(=O)c1ccccc1-2 was read as GIV Gai3 FP inactive and HCMV NEC inh inactive.
`Nc1cnc2cccc3c2c1-c1ccccc1C3=O` gave GIV Gai3 FP -74 and HCMV NEC inh inactive.
For CCOc1ccccc1OCC(=O)OCC1CC1 the results were HCMV NEC inh inactive.
`CCOC(=O)c1[nH]c(CSc2cccc[n+]2[O-])c(C(=O)OCC)c1C` gave HCMV NEC inh 62.
`CCOC(=O)c1[nH]c(CSc2nnc3ccccn23)c(C(=O)OCC)c1C` gave HCMV NEC inh inactive.
Screening CCN(CC)c1ccc(N2C(=O)/C(=C/c3ccccc3)SC2=S)cc1 returned HCMV NEC inh inactive.
Screening CCN(CC)c1ccc(/C=C2\SC(=S)N(c3c(C)n(C)n(-c4ccccc4)c3=O)C2=O)cc1 returned GIV Gai3 FP 26.
For CN(C1CCCCC1)S(=O)(=O)c1ccc(S(=O)(=O)N(Cc2ccccn2)Cc2ccco2)cc1 the results were GIV Gai3 FP inactive and HCMV NEC inh inactive.
For O=c1[nH]c(Nc2ccccc2)cc2ccccc12 the results were GIV Gai3 FP -60 and HCMV NEC inh 110.
O=C(O)c1cc2ccccc2c(=O)[nH]1 was read as GIV Gai3 FP inactive and HCMV NEC inh inactive.
For CC(C)OC(=O)/C(C#N)=C\c1cccs1 the results were GIV Gai3 FP inactive and HCMV NEC inh inactive.
For Cc1ccc(-n2[nH]c(=O)c(N=O)c2O)cc1C the results were GIV Gai3 FP 85.
CC(=O)Nc1ccc(N=Cc2c(C)[nH]n(-c3ccc(C)c(C)c3)c2=O)cc1 was read as GIV Gai3 FP inactive.
For Cn1nc(C(=O)Nc2ccc(Br)cc2F)cc1C(F)(F)F the results were GIV Gai3 FP inactive and HCMV NEC inh inactive.
`CCn1c(SCc2cc(=O)n3ccccc3n2)nc2cc(-c3ccccc3)sc2c1=O` gave GIV Gai3 FP inactive.
